Measurements from ChEMBL document CHEMBL4342416, “Indole: A privileged scaffold for the design of anti-cancer agents” (Eur J Med Chem, 2019).

Assay: Inhibition of bovine brain microtubule polymerization incubated for 60 mins by spectrophotometric method
Parameters: species or system Bos taurus

A Ki of 0.178 µM was found for `CC[C@]1(O)C[C@@H]2CN(CCc3c([nH]c4ccccc34)[C@@](C(=O)OC)(c3cc4c(cc3OC)N(C)[C@H]3[C@@](O)(C(=O)OC)[C@H](OC(C)=O)[C@]5(CC)C=CCN6CC[C@]43[C@@H]65)C2)C1` [VINBLASTINE] in this work.
